Earlier results, collected in PMC8915595, “Revisiting the application of Immobilized Artificial Membrane (IAM) chromatography to estimate in vivo distribution properties of drug discovery compounds based on the model of marketed drugs” (ADMET & DMPK, 2020).

Chains of the proteins cited; added tags and fusions are not shown. Residues count along the entry.
UniProt P02768, 25-609: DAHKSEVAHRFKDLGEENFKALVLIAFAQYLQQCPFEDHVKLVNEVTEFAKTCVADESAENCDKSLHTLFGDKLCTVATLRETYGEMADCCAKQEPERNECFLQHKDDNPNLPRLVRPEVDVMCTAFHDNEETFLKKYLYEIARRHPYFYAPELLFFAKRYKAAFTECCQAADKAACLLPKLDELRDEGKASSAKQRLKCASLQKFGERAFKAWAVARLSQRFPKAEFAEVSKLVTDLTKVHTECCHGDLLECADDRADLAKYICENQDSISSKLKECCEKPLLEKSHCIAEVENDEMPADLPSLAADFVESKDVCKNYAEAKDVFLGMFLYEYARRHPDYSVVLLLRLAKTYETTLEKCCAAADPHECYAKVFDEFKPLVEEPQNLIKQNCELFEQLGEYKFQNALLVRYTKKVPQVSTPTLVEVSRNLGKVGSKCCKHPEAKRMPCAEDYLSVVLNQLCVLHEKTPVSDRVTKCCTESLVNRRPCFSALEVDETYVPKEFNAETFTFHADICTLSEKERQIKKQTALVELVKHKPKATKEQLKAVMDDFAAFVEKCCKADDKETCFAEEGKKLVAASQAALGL

Biological target: human serum albumin (HSA) (Homo sapiens, UniProt P02768)
Conditions: cited from earlier work

CC(=O)Nc1nnc(S(N)(=O)=O)s1 [Acetazolamide]
log K HSA from ref [13]: 1.47
